In patent US6630123B1, “Method to enhance tissue accumulation of radiolabeled compounds” (Board of Supervisors of Louisiana State University and …, priority 1997, dated 2003):

How the values were obtained:
[1] = cited from earlier work
[2] = test system: tumor in the left side of the neck (metastatic small cell carcinoma); conditions: in vivo
[3] = test system: tumor in the left side of the neck (metastatic small cell carcinoma); experiment: External gamma dose rate over neck tumor after bolus injection or infusion (ion chamber survey meter)

Structure (SMILES) | biologic half-life [1] | highest mR/mCi ratio of Infusion Dose 1 relative to highest ratio from the bolus injection [2] | ratio of radioligand accumulated per mCi delivered ([3]; Infusion 1) | ratio of radioligand accumulated per mCi delivered ([3]; Infusion 2) | ratio of radioligand accumulated per mCi delivered ([3]; Infusion 3) | ratio of mR accumulated per mCi delivered ([3]; bolus injection)
C[C@@H](O)[C@@H]1NC(=O)[C@H](CCCCN)NC(=O)[C@@H](Cc2c[nH]c3ccccc23)NC(=O)[C@H](Cc2ccccc2)NC(=O)[C@@H](NC(=O)[C@H](N)Cc2ccccc2)CSSC[C@@H](C(=O)N[C@H](CO)[C@@H](C)O)NC1=O [octreotide acetate] | 90-120 min | – | – | – | – | –
C[C@@H](O)[C@@H]1NC(=O)[C@H](CCCCN)NC(=O)[C@@H](Cc2c[nH]c3ccccc23)NC(=O)[C@H](Cc2ccccc2)NC(=O)[C@@H](NC(=O)[C@@H](Cc2ccccc2)NC(=O)CN2CCN3CCN(CC(=O)O)CC(=O)[O][111In]([O]C(=O)C3)[O]C(=O)C2)CSSC[C@@H](C(=O)N[C@H](CO)[C@@H](C)O)NC1=O [^111In-pentetreotide, ^111In-DTPA-D-Phe^1-octreotide] | – | almost five times higher | 66 mR/mCi | 96 mR/mCi | 121 mR/mCi | 23 mR/mCi
